Experiments:
[1] = target: T1, rat dopamine D-2 receptor (Rattus norvegicus, UniProt P61169); conditions: single experiment FIG. 9A
[2] = target: dopamine-D2 receptor (Rattus norvegicus, UniProt P61169); assay: Adenylate cyclase activity in membranes from GH4ZR7 cells; type: biochemical; parameters: Full-length dopamine-D2 cDNA (17) was excised from λGT10 with Sal I; expressed in transfected cells; conditions: 10 μM forskolin, experiments shown in FIG. 17
[3] = target: T1, rat dopamine D-2 receptor; conditions: percent inhibition of total activity with 10 μM forskolin

By UniProt entry, the sequences of proteins in these tests, tags left out. Residues count along the entry.
UniProt P61169, 1-415 isoform P61169-2: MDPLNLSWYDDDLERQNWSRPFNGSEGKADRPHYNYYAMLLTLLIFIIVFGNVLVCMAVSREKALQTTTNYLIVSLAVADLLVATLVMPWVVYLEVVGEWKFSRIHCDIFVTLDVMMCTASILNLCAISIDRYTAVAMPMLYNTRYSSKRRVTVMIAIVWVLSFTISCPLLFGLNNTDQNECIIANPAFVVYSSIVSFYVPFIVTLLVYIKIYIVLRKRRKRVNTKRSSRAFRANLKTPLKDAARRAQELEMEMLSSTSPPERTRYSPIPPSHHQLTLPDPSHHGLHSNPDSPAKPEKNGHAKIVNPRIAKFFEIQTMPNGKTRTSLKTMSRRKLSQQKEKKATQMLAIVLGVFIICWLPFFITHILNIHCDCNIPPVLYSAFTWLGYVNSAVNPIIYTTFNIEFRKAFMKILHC

For `CCCN1CCCC(c2cccc(O)c2)C1` (single isomer, unassigned; (+)) [(+)3-PPP, 3-(3-hydroxyphenyl)-N-n-propylpiperidine], the Hill coefficient [1] was 1.05, the maximal inhibition [2] was 40% and the “Max (maximal inhibition of adenylate cyclase activity)” value [3] was 16 ± 3%.
